In PubChem BioAssay AID588350 (The Scripps Research Institute Molecular Screening Center, 2011):
Only a part is listed here, and it is no random draw. Activity calls are given as the source filed them.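 Rule for the calls: active = mean activation above the mean of solvent-only control wells plus 3 SD (cut at about 22% in these data); inactive = the rest.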

Test: frataxin GAA30 reporter activation – cell-based, luminescence, HEK293, lucGAA30, triplicate, counter-screen for GAA850 frataxin promoter activator project, confirmation (AID 588350);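 note: counterscreen of GAA850 promoter hits where activity marks nonselective or luminescence artifacts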
Conditions: HEK293 lucGAA30 FXN promoter luciferase, 24 h; at 6 µM; hits give high values; DMSO = 0%, 5 µM ipriflavone = 100%

| SMILES | activation |
| --- | --- |
| CC(=O)NC(SC(=S)N(C)C)C(Cl)(Cl)Cl (configuration not stated) | active: 27.9% |
| CCc1nc2c(n1)c1c(non1O)c1c2no[n+]1[O-] | active: 44.7% |
